System: providence sweet corn
Assay: Northeastern crop study, sweet corn harvestable yield
Conditions: sandy soil, sidedress

## urea
N Rate 100 lbs N/acre
  Yield (100 wt): 102 100 wt
  Yield (1,000 ears/acre): 18.3 1,000 ears/acre
N Rate 140 lbs N/acre
  Yield (100 wt): 101 100 wt
  Yield (1,000 ears/acre): 16.5 1,000 ears/acre

Reference: US9718738B2 (priority 2014, dated 2017)
